## Binding of CDR-mutated scFvs to a peptide of the spike HR2 region

Source: Li et al. 2023 (doi:10.1038/s41467-023-39022-2), MIT Lincoln Laboratory and A-Alpha Bio; data file from the FLAb repository.

Target peptide (SARS-CoV-2 spike, HR2 region): PDVDLGDISGINAS

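The parent was found by panning a naive human phage display library on the peptide. The variants were designed computationally from a first round of random CDR variants and then made and measured. Their group label is 14L_En_Gen (En: ensemble of fine-tuned language models; Gen: genetic algorithm). Affinity was read by AlphaSeq, a pooled yeast mating assay with surface-displayed partners. After mating in shaken culture at 30 °C for 16 h, diploids were selected and their barcode pairs sequenced. Each replicate has its own calibration line, from reference interactions of the BCL2 family. There are six technical replicates.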

Parent scFv Ab-14: VH joined to VL by a (GGGGS)3 linker. Changes lie in the light chain CDRs alone.
VH: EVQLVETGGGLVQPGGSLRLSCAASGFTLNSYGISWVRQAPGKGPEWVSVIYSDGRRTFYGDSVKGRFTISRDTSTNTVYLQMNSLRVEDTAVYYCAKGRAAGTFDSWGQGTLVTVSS
VL: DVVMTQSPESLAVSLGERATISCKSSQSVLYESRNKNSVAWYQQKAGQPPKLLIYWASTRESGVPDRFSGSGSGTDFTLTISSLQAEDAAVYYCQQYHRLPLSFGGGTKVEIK

The parent's light chain CDRs are KSSQSVLYESRNKNSVA, WASTRES, QQYHRLPLS; each variant's own CDRs replace them letter for letter. Affinities are written as log10 Kd with Kd in nM; a lower number is a better binder. An entry "n.d." has no value in the source: the pair was not observed among the diploids in that replicate. This suggests poor binding but is not conclusive.

CDR-L1 | CDR-L2 | CDR-L3 | log10 Kd (nM) by replicate | signal with controls
MISQLMNLGQFAINSVA | QAQIRNQ | QQYDRLPLA | 1.22 0.40 0.01 0.18 -0.18 0.12 | 1 of 18 (3.07)
KIYQGINTHLGAHSSIA | QEETRLE | QQYAHLPLS | 0.74 0.48 0.80 0.12 0.02 0.68 | 2 of 18 (2.72)
KITSTMRFEQKNSNNIA | EVTTRSK | QQYVRLPLA | -0.07 -0.40 -0.36 -0.62 -0.36 -0.47 | 1 of 18 (3.15)
KLVQFMNRGTHHTSNIA | DAQNRID | QQYARLPLV | 0.67 0.82 0.58 0.54 0.67 0.77 | 4 of 18 (3.31)
KFSQMFNSFSVSMNAVA | EMSTREE | QQYNRLPLA | 1.25 0.45 0.65 0.34 0.37 0.73 | 0 of 18
MVNGIMDHLSKNTNNVA | ETTTREE | QQYDRLPLV | 0.76 0.52 0.86 0.64 0.54 0.50 | 1 of 18 (2.76)
KLVQFMNRGTHHTSNIA | DAVNRID | QQYHRLPLA | 0.58 0.34 0.08 0.65 1.30 0.37 | 0 of 18
MMSQVTGSGTRHRNNVA | QTSEREP | QQYDRLPLI | 1.28 0.86 0.95 1.27 1.18 0.73 | 3 of 18 (3.66)
KIGMTLNQLMHQKNNVA | DLVERET | QQYFRLPLS | 0.36 0.26 0.36 0.16 0.26 0.40 | 1 of 18 (3.97)
KVSEFMKGLMMRKDSIA | DNNTRIN | QQYDRLPLS | 1.77 1.27 1.09 1.68 1.29 1.86 | 1 of 18 (3.36)
NLSAMTAHESVKSKNVA | ERSTREE | QQYNRLPLS | -0.02 -0.02 0.49 -0.54 0.20 -0.24 | 0 of 18
KLSGLMSSSKFAKDNVA | ENNTRED | QQYDRLPLS | 0.78 0.79 1.10 0.54 0.67 1.54 | 0 of 18
IVSQLMLWGMHAKNSIA | EAEKRLN | QQYHHLPLI | 2.21 1.75 1.40 1.60 1.71 2.01 | 1 of 18 (2.12)
HITYGMQVAGRHSSSIA | QAEERAK | QQYDRLPLI | 0.35 -0.04 0.16 0.12 0.01 0.37 | 0 of 18
KLTATMRFEQKASNNIA | EVTQRSK | QQYARLPLS | 0.80 0.72 0.73 0.83 0.87 1.06 | 2 of 18 (2.26)
MISQLYNMGTFAINSVA | QASQRNA | QQYDRLPLE | 1.44 1.28 0.99 1.07 1.31 1.46 | 2 of 18 (2.39)
HITYGMMVMGRHSKSIA | QAEERAK | QQYDRLPLV | 0.97 1.16 0.62 1.11 0.94 1.29 | 1 of 18 (2.00)
MISNVMNTLTREGNNVA | DLAEREN | QQYFRLPLS | 1.49 3.60 1.85 3.36 2.41 3.60 | 0 of 18
IVSQLMLWGYTAKNSIA | EAQTRLN | QQYERLPLF | n.d. n.d. n.d. n.d. 3.31 n.d. | 3 of 18 (1.28)
MISQLINMGQFAINSVA | QAETRCN | QQYDRLPLE | n.d. n.d. n.d. n.d. 2.85 1.81 | 0 of 18
MVYSAVMMGGSARNSIA | NAQMRPD | QQYHRLPLA | 1.05 1.42 0.67 1.77 0.78 1.40 | 1 of 18 (1.99)
KVSQFMRGLTQRKDSIA | DNNTRSN | QQYDRLPLS | n.d. 2.38 n.d. 1.69 n.d. 1.76 | 0 of 18
MMSQVTGMESRHRNNVA | QTSTREP | QQYDRLPLI | 1.40 1.56 1.09 0.33 1.01 1.11 | 0 of 18
TIGGTLMFGMRNRSNVA | EVSERLK | QQYDRLPLI | 2.01 1.68 1.86 1.69 2.33 1.33 | 1 of 18 (2.50)
QIGMLLNFESKIVNNVA | QMETRVQ | QQYDRLPLS | 0.62 1.15 1.05 0.59 0.99 0.90 | 0 of 18
MISQLYNMGTFAINSVA | QAETRNE | QQYDRLPLM | 2.03 2.64 1.74 1.55 2.73 1.83 | 0 of 18
KITMTMRFEQKNSNNIA | EVSTRSK | QQYVRLPLA | 0.29 0.06 -0.14 -0.21 -0.23 -0.08 | 1 of 18 (2.77)
KLVNFMNRGTHMTSNIA | DAVNRLD | QQYYRLPLA | -0.03 0.09 -0.16 -0.03 -0.02 0.19 | 0 of 18
KLSMTQELEHVNRNSVA | ELVTRIS | QQYNRLPLS | n.d. n.d. 1.18 1.84 3.21 n.d. | 0 of 18
TLYGLSHSMSKNKNNVA | EMTTRED | QQYDRLPLV | 0.56 0.31 0.30 0.21 0.60 0.28 | 1 of 18 (2.37)
IVSQLMLWGMHATNSIA | EASTRLN | QQYERLPLF | n.d. n.d. n.d. 1.92 n.d. 2.93 | 2 of 18 (2.43)
MISQVMNTLTRHGNNVA | DLEERER | QQYFRLPLS | n.d. n.d. n.d. n.d. n.d. n.d. | 0 of 18
MISQVMNTLTRNGNNVA | DLAEREQ | QQYFRLPLS | 1.00 0.90 1.17 0.72 1.28 1.11 | 1 of 18 (1.99)
KLVQFMNRGTHHTSNIA | DAQNRCD | QQYARLPLA | 0.50 -0.02 0.21 -0.23 -0.01 -0.02 | 0 of 18
TISQVMNTLTRHGNNVA | DLAERES | QQYFRLPLS | 0.64 0.01 -0.20 0.97 -0.17 0.51 | 0 of 18
MISQMYNMGQFAINSVA | QASERNT | QQYDRLPLI | 1.50 1.89 3.12 1.43 1.79 1.74 | 0 of 18
HMSMLTLGGMRHMNSVA | QMTTREN | QQYDRLPLA | 1.46 1.70 1.55 2.09 1.66 1.91 | 1 of 18 (3.52)
MISQLYNMGQFAINSVA | QASTRHE | QQYDRLPLI | 1.13 1.07 0.89 1.22 0.71 1.12 | 0 of 18
IVSQLMLWGMHHKNSIA | EAQTRIN | QQYERLPLF | n.d. n.d. n.d. n.d. n.d. n.d. | 0 of 18
MISQLFNMGQFAINSVA | QASTRCE | QQYDRLPLI | 2.12 1.28 1.82 1.19 1.65 1.62 | 0 of 18
QIYQAMHTLMQAKNNVA | DVTERNN | QQYFRLPLS | 0.61 0.35 0.23 0.01 0.12 0.33 | 0 of 18
QIYQAMHTLSQVKDNVA | DVNERGS | QQYYRLPLS | 1.76 1.25 n.d. 1.50 1.56 1.93 | 1 of 18 (2.68)
KVSEFMKGLTMRKDSIA | DNTTREN | QQYDRLPLS | n.d. 1.82 1.52 n.d. 2.33 n.d. | 0 of 18
IVSQLMLWGWHAKNSIA | EAQTRLN | QQYERLPLF | 1.22 0.65 0.85 0.72 0.61 1.10 | 0 of 18
HMSMLTLQGSRHRNSVA | QMTTREN | QQYDHLPLS | 1.23 0.76 0.69 0.89 0.97 0.63 | 0 of 18
MVSQLMLWGMHVKNSIA | EAVTRYN | QQYDRLPLF | n.d. n.d. n.d. 2.01 n.d. n.d. | 0 of 18
HIGGVLNGENVKGRSVA | HMNTRVD | QQYDRLPLS | 1.09 1.00 1.04 1.29 1.44 1.41 | 1 of 18 (2.71)
KLTMITGLEKVHGNNVA | EMETREK | QQYNRLPLS | -0.24 -0.66 0.44 0.36 -0.34 -0.19 | 1 of 18 (1.52)
IVSQLMIWGMHAKNSIA | EANTRIN | QQYDRLPLF | n.d. n.d. n.d. n.d. n.d. n.d. | 0 of 18
HMSMLTLQGMRHTNSVA | QMTTRVN | QQYDRLPLM | 0.76 0.77 0.64 0.72 0.59 0.79 | 1 of 18 (2.32)

Three control strains display no target. For all light chain designs, 4% of the pairings with them gave a signal, with a median of 2.64 and one signal in twenty below 1.59, so weak values seen in few replicates may be background. For each scFv, signals with the empty controls are counted beside the result, with their mean in brackets. The range of this assay differs from that of the first round, and the authors advise against merging the two. In the paper, a design with two or fewer of six values counts as a poor binder. Of ten entries with the parent sequence, four were seen in most replicates (averages 0.34 to 2.37), three in one and three in none, so single entries are noisy.